Several values for one entry are separate records, joined by “and”; a condition that tells them apart may be missing. Identical values can stand only once.
Experiments:
[1] = test system: IL23-induced TYK2/phosphoSTAT3 (Tyr705) in Kit225 T cells; assay: Kit225 T cell assay for IL23-induced TYK2/phosphoSTAT3 activity; type: cell-based, human; details: read-out: IC50 IL23-induced-STAT3 Phosphorylation, 100 ng/mL IL23, AlphaLISA
[2] = molecular target: TYK2 JH2 pseudokinase domain (Homo sapiens, UniProt P29597); assay: KdELECT competition binding assay, TYK2 JH2; details: read-out: TYK2 JH2 Pseudokinase Domain Binding (Kd); isolated TYK2 JH2 domain
[3] = test system: IFNα-induced CXCL10 production in human whole blood; assay: IFNα-induced CXCL10 production in human whole blood; type: cell-based; details: IFNα 16 hours
hERG = hERG (Homo sapiens, UniProt Q12809)
[4] = test system: IFNα-induced TYK2/phosphoSTAT1 (Tyr701) in Kit225 T cells; assay: Kit225 T cell assay for IFNα-induced TYK2/phosphoSTAT1 activity; type: cell-based, human; details: read-out: IC50 IFNα-induced-STAT1 Phosphorylation, 80 ng/mL IFNα, AlphaLISA

Sequences of proteins named here, by UniProt entry; tags and fusion partners are left off. Residues count along the entry.
UniProt P29597, 589-875 limits assumed: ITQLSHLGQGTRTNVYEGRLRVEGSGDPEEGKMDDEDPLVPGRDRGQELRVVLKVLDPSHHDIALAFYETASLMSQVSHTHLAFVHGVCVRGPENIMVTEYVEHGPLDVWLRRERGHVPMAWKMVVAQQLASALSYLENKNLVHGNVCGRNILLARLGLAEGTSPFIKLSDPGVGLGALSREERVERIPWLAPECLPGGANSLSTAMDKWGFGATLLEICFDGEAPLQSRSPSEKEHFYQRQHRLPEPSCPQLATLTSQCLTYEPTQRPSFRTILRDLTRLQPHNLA
UniProt Q12809, whole entry: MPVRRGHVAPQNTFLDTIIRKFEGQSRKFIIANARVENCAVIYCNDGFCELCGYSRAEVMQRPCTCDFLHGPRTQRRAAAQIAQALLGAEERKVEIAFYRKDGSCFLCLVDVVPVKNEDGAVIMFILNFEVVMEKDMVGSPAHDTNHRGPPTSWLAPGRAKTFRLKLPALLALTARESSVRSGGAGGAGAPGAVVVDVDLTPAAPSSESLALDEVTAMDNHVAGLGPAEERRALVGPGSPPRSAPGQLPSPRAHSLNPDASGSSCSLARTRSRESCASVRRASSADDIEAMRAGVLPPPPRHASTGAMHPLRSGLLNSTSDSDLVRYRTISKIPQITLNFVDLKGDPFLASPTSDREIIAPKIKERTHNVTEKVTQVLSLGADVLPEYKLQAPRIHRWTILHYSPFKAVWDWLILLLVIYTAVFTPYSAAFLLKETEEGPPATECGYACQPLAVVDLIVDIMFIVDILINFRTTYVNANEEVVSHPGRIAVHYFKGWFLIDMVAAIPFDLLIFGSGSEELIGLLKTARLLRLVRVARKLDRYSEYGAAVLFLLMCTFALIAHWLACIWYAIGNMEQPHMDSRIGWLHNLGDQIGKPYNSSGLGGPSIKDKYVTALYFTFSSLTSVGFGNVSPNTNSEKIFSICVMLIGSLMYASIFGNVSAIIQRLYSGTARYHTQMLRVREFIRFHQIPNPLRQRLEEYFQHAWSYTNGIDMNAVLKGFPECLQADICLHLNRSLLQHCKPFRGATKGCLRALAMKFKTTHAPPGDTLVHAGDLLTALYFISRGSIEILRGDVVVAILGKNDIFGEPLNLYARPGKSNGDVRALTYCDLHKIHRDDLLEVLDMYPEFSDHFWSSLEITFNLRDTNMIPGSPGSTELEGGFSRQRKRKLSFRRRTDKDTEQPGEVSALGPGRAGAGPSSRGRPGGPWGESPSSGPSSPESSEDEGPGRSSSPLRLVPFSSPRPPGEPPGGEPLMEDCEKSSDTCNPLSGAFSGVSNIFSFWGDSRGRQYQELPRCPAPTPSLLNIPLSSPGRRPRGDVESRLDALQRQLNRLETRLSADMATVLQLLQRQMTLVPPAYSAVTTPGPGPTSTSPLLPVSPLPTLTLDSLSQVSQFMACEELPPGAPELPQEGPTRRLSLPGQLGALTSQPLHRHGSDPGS

Row | SMILES | IC50 [1] | Kd [2] [nM] | TYK2-associated IFNα-induced-CXCL10 Production in Human Whole Blood: IC50 [3] [nM] | IC50 (hERG) [nM] | IC50 [4]
1 | [2H]C([2H])([2H])NC(=O)c1nnc(NC(=O)C2CC2)cc1Nc1cccc(-c2nc3c(o2)CN(S(C)(=N)=O)C3)c1OC (single isomer, unassigned) [SHR4995] | 39 nM and 53 nM | 0.0034 | 290 | > 30000 | 32 nM and 26 nM
2 | [2H]C([2H])([2H])NC(=O)c1nnc(NC(=O)C2CC2)cc1Nc1cccc(-c2nc3c(o2)CN(S(C)(=N)=O)C3)c1OC (single isomer, unassigned) [SHR4997] | 43 nM and 49 nM | 0.0043 | 280 | 19000 | 37 nM and 28 nM

Reference: article PMC9186491, “Novel Small Molecule Tyrosine Kinase 2 Pseudokinase Ligands Block Cytokine-Induced TYK2-Mediated Signaling Pathways” (Frontiers in Immunology, 2022)
